Source: ChEMBL document CHEMBL1142908, “Selective L-nitroargininylaminopyrrolidine and L-nitroargininylaminopiperidine neuronal nitric oxide synthase inhibitors” (Bioorg Med Chem, 2007)

Target: T1, Nitric oxide synthase 3 (Bos taurus, UniProt P29473)
T1 sequence (P29473 whole entry): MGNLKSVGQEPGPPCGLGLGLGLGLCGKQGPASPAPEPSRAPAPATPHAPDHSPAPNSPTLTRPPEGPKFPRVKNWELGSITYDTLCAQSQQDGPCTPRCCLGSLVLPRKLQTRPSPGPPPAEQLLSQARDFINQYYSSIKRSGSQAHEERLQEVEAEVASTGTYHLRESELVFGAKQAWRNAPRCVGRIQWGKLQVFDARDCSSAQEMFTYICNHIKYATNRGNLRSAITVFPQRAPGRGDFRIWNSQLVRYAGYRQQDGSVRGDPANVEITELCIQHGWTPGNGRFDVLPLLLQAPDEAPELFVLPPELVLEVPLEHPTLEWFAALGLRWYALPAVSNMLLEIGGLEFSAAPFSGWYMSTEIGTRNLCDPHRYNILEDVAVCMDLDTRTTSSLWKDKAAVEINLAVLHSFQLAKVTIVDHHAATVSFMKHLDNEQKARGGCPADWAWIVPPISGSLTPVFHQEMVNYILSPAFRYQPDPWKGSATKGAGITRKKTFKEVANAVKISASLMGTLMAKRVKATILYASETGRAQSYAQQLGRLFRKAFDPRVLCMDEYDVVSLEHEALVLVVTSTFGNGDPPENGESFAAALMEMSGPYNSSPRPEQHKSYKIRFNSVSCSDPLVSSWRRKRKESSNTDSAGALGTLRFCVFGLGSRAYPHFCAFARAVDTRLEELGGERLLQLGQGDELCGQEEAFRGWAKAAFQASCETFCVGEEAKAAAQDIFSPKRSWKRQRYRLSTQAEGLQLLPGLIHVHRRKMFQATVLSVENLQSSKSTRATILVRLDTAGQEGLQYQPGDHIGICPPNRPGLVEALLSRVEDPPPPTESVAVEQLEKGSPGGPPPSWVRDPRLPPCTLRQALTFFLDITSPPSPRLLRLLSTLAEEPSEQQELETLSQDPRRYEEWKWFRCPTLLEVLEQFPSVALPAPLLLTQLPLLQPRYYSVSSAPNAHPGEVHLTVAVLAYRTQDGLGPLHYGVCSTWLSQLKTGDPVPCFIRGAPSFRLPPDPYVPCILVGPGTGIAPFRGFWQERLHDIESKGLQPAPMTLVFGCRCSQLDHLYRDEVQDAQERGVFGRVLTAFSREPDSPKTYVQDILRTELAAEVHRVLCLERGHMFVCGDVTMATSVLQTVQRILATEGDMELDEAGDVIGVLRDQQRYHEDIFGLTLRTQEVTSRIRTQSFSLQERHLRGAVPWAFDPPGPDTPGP
Assay: Inhibition of bovine recombinant eNOS expressed in Escherichia coli assessed as nitric oxide production by hemoglobin capture assay

## NC(=O)[C@@H]1C[C@@H](NC(=O)[C@@H](N)CCC/N=C(\N)N[N+](=O)[O-])CN1
  Ki: 72 µM
